The experiment relates to OT-II cells. Briefly: In vitro induction of regulatory T cells by tolerance vaccine formulations in co-culture of CD11c+ APCs and OT-II cells, flow cytometry. The format is cell-based. Background: Flow cytometry measures light scatter and fluorescence of single cells or particles in a stream.

Regarding `CCCCc1nc2c(N)nc3ccccc3c2n1Cc1ccc(CN)cc1` [Compound 2BXy, 1-(4-(aminomethyl)benzyl)-2-butyl-1H-imidazo[4,5-c]quinolin-4-amine], for the setting “immunostimulant in combination with rapamycin, vs all other groups that included rapamycin”, the “proportion of Tregs induced” value is listed as “significantly lower than all other groups that included rapamycin”. In addition, the “number of regulatory T cells induced” value (immunostimulant in vaccine formulations with the inhibitor Torin 1, FIG. 26) was “signigicantly higher number of regulatory T cells”.

The record behind these values is US20250127887A1 (priority 2021, published 2025).
